The target in data set [1] is T1, human Progesterone receptor (Homo sapiens, UniProt P06401).
T1 construct: PR-rich human T47D cells were seeded in 96-well plates; endogenous in cells; host or cells: T47D human breast carcinoma cells (ATCC # HTB-133)
T1 sequence (P06401 1-933): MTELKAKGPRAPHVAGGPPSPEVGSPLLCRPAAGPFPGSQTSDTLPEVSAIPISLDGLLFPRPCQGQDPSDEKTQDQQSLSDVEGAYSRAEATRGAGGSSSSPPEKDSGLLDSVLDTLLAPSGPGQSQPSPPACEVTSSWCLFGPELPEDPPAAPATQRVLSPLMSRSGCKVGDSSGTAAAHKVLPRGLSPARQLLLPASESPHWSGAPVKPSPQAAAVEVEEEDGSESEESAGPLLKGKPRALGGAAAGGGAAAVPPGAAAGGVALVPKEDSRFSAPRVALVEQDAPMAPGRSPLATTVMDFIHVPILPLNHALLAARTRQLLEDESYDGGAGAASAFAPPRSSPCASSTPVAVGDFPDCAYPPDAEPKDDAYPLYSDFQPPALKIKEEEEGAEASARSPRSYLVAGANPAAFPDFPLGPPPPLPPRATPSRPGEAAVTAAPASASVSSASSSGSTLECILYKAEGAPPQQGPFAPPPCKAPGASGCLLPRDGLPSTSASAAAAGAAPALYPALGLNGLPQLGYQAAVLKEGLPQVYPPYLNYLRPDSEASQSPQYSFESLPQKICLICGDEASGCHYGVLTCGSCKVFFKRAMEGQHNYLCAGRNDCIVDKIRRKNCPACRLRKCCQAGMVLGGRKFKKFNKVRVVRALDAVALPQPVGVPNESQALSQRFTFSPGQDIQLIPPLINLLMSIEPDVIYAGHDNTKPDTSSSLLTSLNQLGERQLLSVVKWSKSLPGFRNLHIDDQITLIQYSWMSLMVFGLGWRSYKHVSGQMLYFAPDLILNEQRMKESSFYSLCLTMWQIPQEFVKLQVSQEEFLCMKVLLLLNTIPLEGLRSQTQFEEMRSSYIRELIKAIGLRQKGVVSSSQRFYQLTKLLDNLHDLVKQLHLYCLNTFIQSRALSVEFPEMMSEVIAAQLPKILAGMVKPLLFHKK
The data set can be described thus: Secondary PR assay in T47D cells (PR-induced alkaline phosphatase activity, 200 pM Promegestone). The data set is classed as cell-based. As to conditions: 24 hours.

For data set [2] the following is noted: mice, rats and monkeys; cited from earlier work.
Data set [3] can be described thus: Pharmacokinetics of bolus recombinant hIFN-β1a protein in mice, serum hIFN-β ELISA. On the technique in general: In an ELISA, binding on a coated surface is turned into a signal by an enzyme label.

Data on three compounds can be found in patent US20110020925A1, “NEW MODULATING MOLECULES FOR AN IMPROVED REGULATED EXPRESSION SYSTEM” (BAYER SCHERING PHARMA AKTIENGESELLSCHAFT, priority 2007, published 2011).

`CC#C[C@]1(O)CC[C@H]2[C@@H]3CCC4=CC(=O)CCC4=C3[C@@H](c3ccc(N(C)C)cc3)C[C@@]21C` [MFP, 11-(4-dimethylaminophenyl)-17-hydroxy-17c-propynyl-4,9-estradiene-3-one]: the “inhibition of PR-dependent AP expression” value in data set [1] is 100%.
On to “PEGylated form of IFN-β1a: IFN-β1a with attached 20-kDa polymer of polyethylene glycol (literature)”, for which the “half-life (t1/2)” value in data set [2] is around 10 h.
For “hIFN-β1a: recombinant human interferon-β 1a protein given as bolus injection”, in data set [3] (i.m. injection), the “decrease of hIFN-β1a serum level from maximum by 6 hours” value was “approximately 10 fold” and the “time of maximum hIFN-β1a serum level post-injection” value turned out to be 2 h. The “difference in serum hIFN-β1a level between the high and low dose” value in data set [3] (i.v. and i.m., 250 ng vs 25 ng) came to 10 fold. Moreover, the “time by which serum hIFN-β1a levels were near the limit of detection” value in data set [3] (i.v. injection, 25 ng or 250 ng, LOD=12.5 pg/ml) was at most 6 h. In data set [2], the “half-life (t1/2)” value was “approximately 1 hours”.
